Literature values as cited in US20100197962A1 (priority 2005, published 2010).

Target: glycine site (strychnine-insensitive) coupled to the NMDA receptor complex (Homo sapiens, UniProt Q05586)
Conditions: Lanza et al. 1997; cited from earlier work

## (S)-4-amino-N-(4,4-dimethylcyclohexyl)glutamic acid [Neboglamine]
  modulatory properties on the glycine site coupled to the NMDA receptor complex: significant modulatory properties
